Results on one compound are retold here after patent US20140296255A1.

Sequences of proteins named here, by UniProt entry; tags and fusion partners are left off.
UniProt P21397, whole entry: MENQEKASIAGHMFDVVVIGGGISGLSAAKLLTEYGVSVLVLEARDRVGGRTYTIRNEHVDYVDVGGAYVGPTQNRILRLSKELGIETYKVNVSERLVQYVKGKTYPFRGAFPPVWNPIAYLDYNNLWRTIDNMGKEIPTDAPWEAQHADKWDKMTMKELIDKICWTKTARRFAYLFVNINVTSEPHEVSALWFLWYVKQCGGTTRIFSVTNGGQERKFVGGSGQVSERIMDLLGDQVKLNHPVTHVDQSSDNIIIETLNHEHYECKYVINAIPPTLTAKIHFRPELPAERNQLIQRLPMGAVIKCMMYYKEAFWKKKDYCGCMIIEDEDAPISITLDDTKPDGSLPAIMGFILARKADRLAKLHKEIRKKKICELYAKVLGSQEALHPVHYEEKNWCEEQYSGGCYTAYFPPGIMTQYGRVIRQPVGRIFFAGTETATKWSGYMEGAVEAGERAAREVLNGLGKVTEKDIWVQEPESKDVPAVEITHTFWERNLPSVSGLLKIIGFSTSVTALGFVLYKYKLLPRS

The assay deals with Human recombinant monoamine oxidase MAO-A (Homo sapiens, UniProt P21397). Kind of assay: MAO-A inhibition, kynuramine fluorescence assay. The class given is biochemical. The conditions noted are these: read-out: IC50 for MAO-A; initial determination.

Structures are written as SMILES. pIC50: −log10 of the molar value.

For `CN1CCN(C(=O)CN[C@H]2C[C@@H]2c2ccc(OCc3ccccc3)cc2)CC1` (relative stereo), the pIC50 was 4.70 to 4.82.
